Assay results: PMC8521618 (ACS Medicinal Chemistry Letters, 2021)

Amino acid sequences for entries named in this document (tags omitted). Residues count along the entry.
UniProt Q9BYW2, 1434-1711: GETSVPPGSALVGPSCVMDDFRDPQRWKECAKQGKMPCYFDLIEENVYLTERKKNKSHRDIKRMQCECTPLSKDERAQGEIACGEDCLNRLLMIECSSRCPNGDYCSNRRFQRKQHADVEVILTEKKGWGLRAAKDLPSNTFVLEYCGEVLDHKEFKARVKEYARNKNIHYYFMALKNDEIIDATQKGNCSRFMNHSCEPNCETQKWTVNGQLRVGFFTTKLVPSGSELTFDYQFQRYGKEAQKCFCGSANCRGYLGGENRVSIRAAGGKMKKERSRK

Molecular target: SETD2 (1434-1711) (Homo sapiens, UniProt Q9BYW2)
Experiment: biochemical

Structure (SMILES): Cc1cccc2cc(C(=O)N[C@H]3CC[C@H](NC(=O)CCN)CC3)[nH]c12 [Compound 2]
- IC50: 22.1 µM
